ChEMBL document CHEMBL6127128, “Discovery of the First-in-Class Dual-Target ROCK/HDAC Inhibitor with Potent Antitumor Efficacy in Vivo That Trigger Antitumor Immunity” (J Med Chem, 2024)

Biological target: T1, Polyamine deacetylase HDAC10 (Homo sapiens, UniProt Q969S8)
T1 sequence (Q969S8 whole entry): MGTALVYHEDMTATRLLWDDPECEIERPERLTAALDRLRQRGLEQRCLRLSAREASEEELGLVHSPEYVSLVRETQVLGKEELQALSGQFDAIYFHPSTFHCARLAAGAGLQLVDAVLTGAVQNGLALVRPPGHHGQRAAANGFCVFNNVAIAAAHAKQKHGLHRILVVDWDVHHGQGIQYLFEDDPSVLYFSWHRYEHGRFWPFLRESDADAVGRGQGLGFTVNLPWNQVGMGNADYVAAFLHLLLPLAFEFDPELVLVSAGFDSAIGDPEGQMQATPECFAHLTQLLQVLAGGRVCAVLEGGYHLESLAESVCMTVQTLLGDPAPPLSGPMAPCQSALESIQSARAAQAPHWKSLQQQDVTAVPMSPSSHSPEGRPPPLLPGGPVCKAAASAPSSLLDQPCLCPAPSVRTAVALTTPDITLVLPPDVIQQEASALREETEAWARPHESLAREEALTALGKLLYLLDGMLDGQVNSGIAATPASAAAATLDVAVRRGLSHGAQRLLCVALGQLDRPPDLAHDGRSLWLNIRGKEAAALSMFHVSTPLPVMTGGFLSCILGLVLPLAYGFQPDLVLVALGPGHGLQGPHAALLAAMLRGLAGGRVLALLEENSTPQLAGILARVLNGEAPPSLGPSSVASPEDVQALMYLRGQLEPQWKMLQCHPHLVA
Assay: Inhibition of HDAC10 (unknown origin) using Ac-Arg-His-Lys(Ac)-Lys(Ac)-AMC as substrate preincubated for 5 mins followed by substrate addition for 30 mins and measured following trypsin addition for 30 mins by fluorescence based analysis

- IC50: > 10 µM
SMILES: O=C(CCCCCCC(=O)Nc1ccccc1)NO [VORINOSTAT]
